Source: patent US20100317729A1 (GW Pharma Limited, priority 2007, published 2010)

Protein sequences, listed by entry. Tags and fused reporters are not part of them.
UniProt P34972, whole entry: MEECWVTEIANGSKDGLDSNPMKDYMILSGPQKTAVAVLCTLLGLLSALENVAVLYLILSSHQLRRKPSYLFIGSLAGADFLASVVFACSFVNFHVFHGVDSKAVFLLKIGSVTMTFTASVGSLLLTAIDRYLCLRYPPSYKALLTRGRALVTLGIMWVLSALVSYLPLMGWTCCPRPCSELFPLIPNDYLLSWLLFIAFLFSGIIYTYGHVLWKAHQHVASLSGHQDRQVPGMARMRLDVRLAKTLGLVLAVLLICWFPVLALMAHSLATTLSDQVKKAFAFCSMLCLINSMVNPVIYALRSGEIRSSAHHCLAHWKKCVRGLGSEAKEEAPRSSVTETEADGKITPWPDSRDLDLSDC

Assays:
[1] = target: T1, hCB2 receptors (Homo sapiens, UniProt P34972); test: [35S]GTPγS binding assay, CHO-hCB2 cell membranes; assay type: biochemical; settings: read-out: Mean apparent KB
T1 construct: expressed in transfected cells; host or cells: CHO cells
Protocol: Nonspecific binding was measured in the presence of 30 μM GTPγS.
The concentrations of [^35S]GTPγS and GDP present in the assay varied depending on whether the assay was conducted with mouse brain or transfected cell membranes. When the assay was conducted with mouse brain membranes, 0.1 nM [^35S]GTPγS and 30 μM GDP were present, whereas the corresponding concentrations present when the assay was conducted with transfected cell membranes were 1 nM and 320 μM respectively.
Additionally, mouse brain membranes were preincubated for 30 minutes at 30° C. with 0.5 U ml^−1 adenosine deaminase to remove endogenous adenosine. […]
Net agonist-stimulated [^35S]GTPγS binding values were calculated by subtracting basal binding values (obtained in the absence of agonist) from agonist-stimulated values (obtained in the presence of agonist) as detailed elsewhere (Ross et al., 1999a).
The apparent dissociation constant (KB) values for antagonism of agonists by THCV in the vas deferens or [^35S]GTPγS binding assay have been calculated by Schild analysis from the concentration ratio, defined as the concentration of an agonist that elicits a response of a particular size in the presence of a competitive reversible antagonist at a concentration, B, divided by the concentration of the same agonist that produces an identical response in the absence of the antagonist. […]

[2] = target: T1, hCB2 receptors; test: Radioligand displacement assay, CHO-hCB2 cell membranes; assay type: binding; settings: read-out: Ki-value for displacement of [3H]CP55940
Protocol: Binding was initiated by the addition of either the brain membranes (33 μg protein per tube) or the transfected hCB2 cells (25 μg protein per tube).
All assays were performed at 37° C. for 60 min before termination by addition of ice-cold wash buffer (50 mM Tris buffer, 1 mg ml^−1 bovine serum albumin, pH 7.4) and vacuum filtration using a 24-well sampling manifold and GF/B filters that had been soaked in wash buffer at 4° C. for at least 24 h.
Each reaction tube was washed six times with a 1.2 ml aliquot of wash buffer. The filters were oven-dried for 60 min and then placed in 5 ml of scintillation fluid. Radioactivity was quantified by liquid scintillation spectrometry.
Specific binding was defined as the difference between the binding that occurred in the presence and absence of 1 μM unlabelled CP55940.
Values are expressed as means and variability as s.e.mean or as 95% confidence limits.

## C=C(C)[C@@H]1CCC(C)=C[C@H]1c1c(O)cc(CCCCC)cc1O [CBD, cannabidiol]
[1]
  Kb: 0.0651 µM
[2]
  Ki: 4.2 µM
